Literature values, collected in patent US8815249B2 (priority 1999, dated 2014).

Conditions: plasma; cited from earlier work

Sequence: AAGIGILTV [MART-1(27-35) peptide]
- calculated half-life: 22 s
